## Yeast mating assay B: variants of the scFv Ab-14

The target is the same throughout: PDVDLGDISGINAS, from the HR2 region of SARS-CoV-2 spike.

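Designed CDR sequences, proposed from the first random library and measured here. Group labels follow the data file (Ctrl: baseline library sampled from a position-specific scoring matrix, with some repeated check sequences; En: ensemble of fine-tuned language models; GP: Gaussian process model; GPLM: also part of the Gaussian process libraries; HC: hill climbing; Gen: genetic algorithm; Gibbs: Gibbs sampling; a sequence that several methods proposed may carry one label only). AlphaSeq pools MATa yeast showing the antibodies with MATalpha yeast showing the peptide. Pairs that bind mate more often; barcode pairs of the diploids are counted by sequencing. The ratio of observed to expected reads was calibrated, replicate by replicate, on BCL2-family standards whose Kd was known from biolayer interferometry. Mating was done six times.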

Each scFv is VH, a (GGGGS)3 linker, VL, as in the parent Ab-14, and differs from it in the CDRs of the heavy chain only.
VH: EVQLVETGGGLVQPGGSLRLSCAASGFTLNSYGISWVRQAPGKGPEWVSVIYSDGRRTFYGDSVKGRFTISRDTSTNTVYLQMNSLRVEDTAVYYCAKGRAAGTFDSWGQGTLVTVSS
VL: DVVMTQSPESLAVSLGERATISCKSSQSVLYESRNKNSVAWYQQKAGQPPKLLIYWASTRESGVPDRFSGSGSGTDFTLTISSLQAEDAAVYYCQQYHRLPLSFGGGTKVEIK

Each variant is given by its three heavy chain CDRs, as the data file delimits them; those of the parent are GFTLNSYGIS, VIYSDGRRTFYGDSVK, GRAAGTFDS.
Scale: log10 of Kd in nM, estimated from mating counts; low values are strong binders.
A mean of the replicates is given; it leaves out those without a signal.
"n.d." means that the variant was in the library but no mating with the target was seen in that replicate; the authors take this as a sign of poor binding, and no number exists.

{"CDR-H1": "KFELNSYGIS", "CDR-H2": "VIYSDGRRTFYADSVK", "CDR-H3": "GRTAGTFDS", "group": "GP_Gen", "log10 Kd, replicates": "2.05 0.95 0.90 1.18 1.71 1.11", "mean log10 Kd (nM)": "1.32", "signal with controls": "0/18"}
{"CDR-H1": "GFSLNEYGIS", "CDR-H2": "VIYSDGRRTFYGDSVK", "CDR-H3": "GRTAGTFVS", "group": "GPLM_Gen", "log10 Kd, replicates": "0.97 1.35 0.74 2.00 2.82 1.75", "mean log10 Kd (nM)": "1.61", "signal with controls": "0/18"}
{"CDR-H1": "GFDLDEYGIS", "CDR-H2": "VIYADGMRTAYADSVK", "CDR-H3": "GENAGTFDL", "group": "En_Gen", "log10 Kd, replicates": "-0.35 -0.60 -0.39 -0.63 -0.83 0.58", "mean log10 Kd (nM)": "-0.37", "signal with controls": "0/18"}
{"CDR-H1": "GFSLNSYGIS", "CDR-H2": "VIYSDGRRTFYQDSVK", "CDR-H3": "GEAAGTFDK", "group": "GPLM_Gibbs", "log10 Kd, replicates": "0.72 0.66 0.04 0.36 0.28 0.40", "mean log10 Kd (nM)": "0.41", "signal with controls": "0/18"}
{"CDR-H1": "GFDLDEYGIS", "CDR-H2": "VIYADGVRTAYADSVK", "CDR-H3": "GNVAGTFDL", "group": "En_Gen", "log10 Kd, replicates": "0.69 -0.48 -0.26 -0.77 -1.45 -0.11", "mean log10 Kd (nM)": "-0.40", "signal with controls": "0/18"}
{"CDR-H1": "GFDLNSYGIS", "CDR-H2": "VIYSDGRRTFYVDSVK", "CDR-H3": "GKAAGTFDQ", "group": "GP_Gibbs", "log10 Kd, replicates": "0.76 0.62 1.01 0.86 0.90 1.29", "mean log10 Kd (nM)": "0.90", "signal with controls": "0/18"}
{"CDR-H1": "GFTLNSYGIS", "CDR-H2": "VIYSDGRRTFYGDSVK", "CDR-H3": "GRAAGQFDS", "group": "Ctrl", "log10 Kd, replicates": "n.d. n.d. n.d. n.d. n.d. n.d.", "mean log10 Kd (nM)": "n.d.", "signal with controls": "0/18"}
{"CDR-H1": "GFALNSYGIS", "CDR-H2": "VIYSDGRRTFYKDSVK", "CDR-H3": "GQLAGTFDS", "group": "GP_HC", "log10 Kd, replicates": "0.69 0.98 0.08 -0.07 0.26 -0.05", "mean log10 Kd (nM)": "0.32", "signal with controls": "0/18"}
{"CDR-H1": "GFELNSYGIS", "CDR-H2": "VIYSDGRRTFYVDSVK", "CDR-H3": "GRTAGTFDA", "group": "GP_Gibbs", "log10 Kd, replicates": "1.07 0.63 0.57 0.63 0.16 0.89", "mean log10 Kd (nM)": "0.66", "signal with controls": "0/18"}
{"CDR-H1": "GFSLNEYGIS", "CDR-H2": "VIYSDGRRTWYGDSVK", "CDR-H3": "GRAAGTFDS", "group": "GPLM_Gen", "log10 Kd, replicates": "0.11 0.51 0.06 0.01 -0.22 -0.01", "mean log10 Kd (nM)": "0.08", "signal with controls": "0/18"}
{"CDR-H1": "GFDLNEYGIS", "CDR-H2": "VIYADGQRTFYQDSVK", "CDR-H3": "GEIAGTFDQ", "group": "En_HC", "log10 Kd, replicates": "-0.22 -0.54 -0.64 -0.93 -0.68 -0.63", "mean log10 Kd (nM)": "-0.61", "signal with controls": "0/18"}
{"CDR-H1": "GFDLNEYGIS", "CDR-H2": "VIYADGRRTFYSDSVK", "CDR-H3": "GEIAGTFNQ", "group": "En_HC", "log10 Kd, replicates": "-0.32 -0.20 -0.56 -0.72 -0.41 -0.17", "mean log10 Kd (nM)": "-0.39", "signal with controls": "1/18 (1.21)"}
{"CDR-H1": "GFNLNEYGIS", "CDR-H2": "VIYADGRRTFYADSVK", "CDR-H3": "GNTAGTFDS", "group": "En_HC", "log10 Kd, replicates": "-0.52 -0.51 -0.91 -0.59 -0.51 -0.49", "mean log10 Kd (nM)": "-0.59", "signal with controls": "0/18"}
{"CDR-H1": "GFNLDEYGIS", "CDR-H2": "VIYADGRRTFYQDSVK", "CDR-H3": "GEGAGTFDT", "group": "En_HC", "log10 Kd, replicates": "n.d. 2.27 1.75 1.90 1.76 n.d.", "mean log10 Kd (nM)": "1.92", "signal with controls": "1/18 (1.84)"}
{"CDR-H1": "GFELNSYGIS", "CDR-H2": "VIYSDGRRTFYGDSVK", "CDR-H3": "GKTAGTFDC", "group": "GP_Gen", "log10 Kd, replicates": "n.d. n.d. n.d. n.d. n.d. n.d.", "mean log10 Kd (nM)": "n.d.", "signal with controls": "0/18"}
{"CDR-H1": "GFTLNEYGIS", "CDR-H2": "VIYSDGRRTFYTDSVK", "CDR-H3": "GRAAGTFVS", "group": "GP_HC", "log10 Kd, replicates": "n.d. n.d. n.d. n.d. n.d. 1.66", "mean log10 Kd (nM)": "1.66", "signal with controls": "0/18"}
{"CDR-H1": "GFDLNEYGIS", "CDR-H2": "VIYADGMRTAYSDSVK", "CDR-H3": "GGQAGTFDV", "group": "En_Gen", "log10 Kd, replicates": "-0.51 -0.76 -0.80 -0.43 -0.87 -0.81", "mean log10 Kd (nM)": "-0.70", "signal with controls": "0/18"}
{"CDR-H1": "GFTNNEYGIS", "CDR-H2": "VIYSDGRRQFYGDSVK", "CDR-H3": "GHAYATFTS", "group": "Ctrl", "log10 Kd, replicates": "n.d. n.d. n.d. n.d. n.d. n.d.", "mean log10 Kd (nM)": "n.d.", "signal with controls": "0/18"}
{"CDR-H1": "GFDLNEYGIS", "CDR-H2": "VIYADGRRTFYTDKVK", "CDR-H3": "GGNAGTFDV", "group": "En_HC", "log10 Kd, replicates": "-0.52 -0.81 -0.94 -0.98 -0.92 -0.36", "mean log10 Kd (nM)": "-0.76", "signal with controls": "0/18"}
{"CDR-H1": "GFDLNMYGIS", "CDR-H2": "VGYSDGRRTFYLDSVK", "CDR-H3": "GYAAGTFDS", "group": "Ctrl", "log10 Kd, replicates": "n.d. n.d. 2.82 n.d. n.d. n.d.", "mean log10 Kd (nM)": "2.82", "signal with controls": "0/18"}

Picked from the list: the 2 lowest averages where every replicate gave a value.

{"CDR-H1": "GFDLNEYGIS", "CDR-H2": "VIYADGRRTFYTDKVK", "CDR-H3": "GGNAGTFDV", "group": "En_HC", "log10 Kd, replicates": "-0.52 -0.81 -0.94 -0.98 -0.92 -0.36", "mean log10 Kd (nM)": "-0.76", "signal with controls": "0/18"}
{"CDR-H1": "GFDLNEYGIS", "CDR-H2": "VIYADGMRTAYSDSVK", "CDR-H3": "GGQAGTFDV", "group": "En_Gen", "log10 Kd, replicates": "-0.51 -0.76 -0.80 -0.43 -0.87 -0.81", "mean log10 Kd (nM)": "-0.70", "signal with controls": "0/18"}

The authors averaged sequences with at least three values out of six and counted those with two or fewer as poor binders.
As a blank, each scFv also met three strains without target: over all heavy chain designs, 1% of these pairings were detected, typically at 2.08 and seldom below 0.84. For each scFv, signals with the empty controls are counted beside the result, with their mean in brackets.
The parent sequence was in this pool as ten entries: three were never detected, three once, and four in most replicates, with averages from 0.34 to 2.37.
A sequence measured in both rounds can read differently, since the two assays cover different ranges.

Data: MIT Lincoln Laboratory AlphaSeq set, Li et al. 2023, doi:10.1038/s41467-023-39022-2, as distributed in FLAb.